This is one part of the list. Activity calls are given as the source filed them.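 The calls were made as follows: active = activation factor of at least 2 at 5 µM in the primary screen; inactive = the rest.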
biological target: Cytochrome P450 2C19 (Homo sapiens) (UniProt P33261); test: human CYP2C19 activators, primary screen, biochemical, luminescence (AID 1025); conditions: recombinant CYP2C19, luciferin-H EGE luminescence; at 5 µM; stronger effect = higher value; 0 = fully inhibited enzyme, 1 = untreated enzyme;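 also: 0 = wells with 2.5 mM tranylcypromine and 1 = vehicle-only wells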

Sequences of proteins named here, by UniProt entry; tags and fusion partners are left off.
UniProt P33261, whole entry: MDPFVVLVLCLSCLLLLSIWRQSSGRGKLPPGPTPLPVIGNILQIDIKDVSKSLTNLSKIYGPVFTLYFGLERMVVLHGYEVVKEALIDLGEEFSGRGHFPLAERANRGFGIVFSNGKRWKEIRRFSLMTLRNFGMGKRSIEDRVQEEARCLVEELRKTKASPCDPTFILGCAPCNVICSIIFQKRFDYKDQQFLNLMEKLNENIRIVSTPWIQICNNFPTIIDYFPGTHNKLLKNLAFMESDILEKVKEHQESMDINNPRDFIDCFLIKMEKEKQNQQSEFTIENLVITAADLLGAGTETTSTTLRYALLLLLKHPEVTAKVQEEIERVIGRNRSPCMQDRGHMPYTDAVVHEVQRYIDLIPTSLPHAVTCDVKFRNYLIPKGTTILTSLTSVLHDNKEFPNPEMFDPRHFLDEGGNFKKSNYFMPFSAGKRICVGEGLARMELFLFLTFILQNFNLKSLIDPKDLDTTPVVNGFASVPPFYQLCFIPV

| SMILES | activation factor |
| --- | --- |
| CP(=O)(Nc1ccccc1F)Oc1ccccc1 (stereo not given) | inactive: 0.8 |
| CP(=O)(Nc1ccccc1)Oc1ccc(F)cc1 (stereo not given) | inactive: 0.8 |
| CN(C)CCOC(=O)C(O)(c1ccccc1)C1CCCCC1 (stereo not given) | inactive: 0.5 |
| COc1ccc(OP(C)(=O)Nc2cccc(Br)c2)cc1 (stereo not given) | inactive: 0.3 |
| Cc1ccccc1NP(C)(=O)Nc1ccccc1C | inactive: 0.2 |
| CCOP(C)(=S)SCC(=O)NC(C)(CC)C(=O)O (stereo not given) | inactive: 1.1 |
| CC(C)(C)c1ccc(OP(C)(=O)O)cc1 | inactive: 1.1 |
| COc1ccccc1OP(C)(=O)Nc1c(C)n(C)n(-c2ccccc2)c1=O (stereo not given) | inactive: 1 |
| CP(=O)(Oc1ccccc1)N1CCOC1=O (stereo not given) | inactive: 1 |
| CCN(CC)CC(O)COC(=O)C(O)(c1ccccc1)C1CCCCC1 (stereo not given) | inactive: 1 |
| CP(=O)(OC12CC3CC(CC(C3)C1)C2)OC12CC3CC(CC(C3)C1)C2 | inactive: 1.2 |
| Cc1nc2ccc3ccccc3c2o1.O=[N+]([O-])c1cc([N+](=O)[O-])c(O)c([N+](=O)[O-])c1 | inactive: 1.1 |
| COc1ccccc1OP(C)(=O)Nc1ccc(C)c(C)c1 (stereo not given) | inactive: 0.1 |
| COc1ccccc1OP(C)(=O)Nc1ccc(C)cc1C (stereo not given) | inactive: 0.7 |
| CP(=O)(Nc1ccccn1)Oc1ccccc1 (stereo not given) | inactive: 0.9 |
| CCc1ccc(OP(C)(=O)O)cc1 | inactive: 1 |
| Cc1c(NP(C)(=O)Oc2ccc(C(C)C)cc2)c(=O)n(-c2ccccc2)n1C (stereo not given) | inactive: 0.9 |
| COc1ccc(OP(C)(=O)Nc2ccccn2)cc1 (stereo not given) | inactive: 0.5 |
| CN(C)CCOC(=O)C(O)(c1ccccc1)C1CCCC1 (stereo not given) | inactive: 0.9 |
| COc1ccc(OP(C)(=O)Nc2cccc(F)c2)cc1 (stereo not given) | inactive: 0 |
| Cc1ccc(NP(C)(=O)Oc2ccccc2)c(C)c1 (stereo not given) | inactive: 0.4 |
| COc1ccccc1OP(C)(=O)Nc1ccc(C)cc1 (stereo not given) | inactive: 0.2 |
| CP(=S)(Nn1cnnc1)Oc1ccccc1 (stereo not given) | inactive: 0.9 |
| CP(=O)(Nc1ccccn1)Oc1ccc(Cl)cc1 (stereo not given) | inactive: 0.6 |
| CCOP(C)(=S)SCC(=O)NC(C)C(=O)O (stereo not given) | inactive: 0.8 |
| CP(=O)(NC(=O)Nc1ccccc1)Oc1ccccc1 (stereo not given) | inactive: 1.1 |
| Cc1nc2ccc3ccccc3c2s1.O=[N+]([O-])c1cc([N+](=O)[O-])c(O)c([N+](=O)[O-])c1 | inactive: 0.9 |
| Cc1ccc(C)c(NP(C)(=O)Oc2ccccc2)c1 (stereo not given) | inactive: 0.8 |
| Cc1cc(C)cc(OP(C)(=O)Nc2ccccn2)c1 (stereo not given) | inactive: 0.5 |
| Cc1cc(C)cc(OP(C)(=O)Nc2ccc(C)cc2C)c1 (stereo not given) | inactive: 0.1 |

Reference: PubChem BioAssay AID1025 (Sanford-Burnham Center for Chemical Genomics, 2008)
